What all share (type): cell-based
Assay [1] has as its target T1, Retinoic acid receptor RXR-alpha (Homo sapiens) (UniProt P19793).
T1 sequence (whole entry): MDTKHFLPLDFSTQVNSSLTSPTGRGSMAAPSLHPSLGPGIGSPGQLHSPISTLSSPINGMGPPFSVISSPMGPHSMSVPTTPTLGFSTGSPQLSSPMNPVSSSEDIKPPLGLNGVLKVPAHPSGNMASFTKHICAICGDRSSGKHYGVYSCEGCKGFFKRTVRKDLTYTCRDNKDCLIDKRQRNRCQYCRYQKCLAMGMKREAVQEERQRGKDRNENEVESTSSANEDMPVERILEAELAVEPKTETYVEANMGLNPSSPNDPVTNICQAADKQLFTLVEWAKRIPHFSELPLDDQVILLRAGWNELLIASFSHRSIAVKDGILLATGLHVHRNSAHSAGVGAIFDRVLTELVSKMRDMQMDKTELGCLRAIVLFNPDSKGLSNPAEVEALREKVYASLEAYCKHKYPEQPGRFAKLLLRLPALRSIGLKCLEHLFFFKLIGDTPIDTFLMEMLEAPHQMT
Put plainly: Agonist activity at Gal4-LBD fused RXRalpha (unknown origin) expressed in HEK293T cells assessed as fold activation after 14 to 16 hrs by dual-Glo luciferase assay relative to untreated control. The procedure, abridged: (§1)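 Gal4-hybrid RXRα/β/γ reporter gene assays in HEK293T cells. Fold activation is the maximal fold activation versus 0.1% DMSO.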

Assay [2] addresses T2, Retinoic acid receptor RXR-beta (Homo sapiens) (UniProt P28702).
T2 sequence (whole entry): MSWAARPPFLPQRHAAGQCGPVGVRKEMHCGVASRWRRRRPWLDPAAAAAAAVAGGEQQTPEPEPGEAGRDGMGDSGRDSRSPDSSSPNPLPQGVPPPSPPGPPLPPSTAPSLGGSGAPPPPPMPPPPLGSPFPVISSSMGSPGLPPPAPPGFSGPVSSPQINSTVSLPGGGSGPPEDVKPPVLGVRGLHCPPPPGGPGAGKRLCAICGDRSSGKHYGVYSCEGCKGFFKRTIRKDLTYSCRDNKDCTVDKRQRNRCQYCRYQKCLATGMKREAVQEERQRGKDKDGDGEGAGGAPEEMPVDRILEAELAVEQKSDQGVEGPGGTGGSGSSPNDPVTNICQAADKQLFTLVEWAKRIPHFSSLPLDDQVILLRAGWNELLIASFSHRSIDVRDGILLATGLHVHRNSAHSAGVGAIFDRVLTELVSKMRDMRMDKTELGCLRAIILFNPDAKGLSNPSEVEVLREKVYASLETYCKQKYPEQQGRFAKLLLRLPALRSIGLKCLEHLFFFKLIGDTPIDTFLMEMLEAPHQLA
Put plainly: Agonist activity at Gal4-LBD fused RXRbeta (unknown origin) expressed in HEK293T cells assessed as fold activation after 14 to 16 hrs by dual-Glo luciferase assay relative to untreated control. The essentials:
as §1

Assay [3] deals with T3, Retinoic acid receptor RXR-gamma (Homo sapiens) (UniProt P48443).
T3 sequence (whole entry): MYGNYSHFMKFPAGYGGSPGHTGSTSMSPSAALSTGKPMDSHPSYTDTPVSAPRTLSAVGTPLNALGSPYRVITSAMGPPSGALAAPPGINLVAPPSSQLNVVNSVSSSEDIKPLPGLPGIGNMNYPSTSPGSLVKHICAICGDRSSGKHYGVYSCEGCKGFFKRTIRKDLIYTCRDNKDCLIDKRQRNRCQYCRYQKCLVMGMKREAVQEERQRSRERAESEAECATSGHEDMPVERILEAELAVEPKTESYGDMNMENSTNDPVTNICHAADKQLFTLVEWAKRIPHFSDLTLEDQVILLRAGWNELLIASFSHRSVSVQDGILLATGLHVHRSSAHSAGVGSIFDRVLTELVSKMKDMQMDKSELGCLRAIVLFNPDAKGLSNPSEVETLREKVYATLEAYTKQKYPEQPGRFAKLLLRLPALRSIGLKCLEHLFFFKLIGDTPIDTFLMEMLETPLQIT
Put plainly: Agonist activity at Gal4-LBD fused RXRgamma (unknown origin) expressed in HEK293T cells assessed as fold activation after 14 to 16 hrs by dual-Glo luciferase assay relative to untreated control. The essentials: as §1

For assay [4], the target named is T1, Retinoic acid receptor RXR-alpha (Homo sapiens). Put plainly: Agonist activity at Gal4-LBD fused RXRalpha (unknown origin) expressed in HEK293T cells assessed as fold activation at 20 uM after 14 to 16 hrs by dual-Glo luciferase assay relative to untreated control. The essentials:
as §1

In assay [5] the target is T2, Retinoic acid receptor RXR-beta (Homo sapiens). Put plainly: Agonist activity at Gal4-LBD fused RXRbeta (unknown origin) expressed in HEK293T cells assessed as fold activation at 20 uM after 14 to 16 hrs by dual-Glo luciferase assay relative to untreated control. The essentials: as §1
Assay [6] has as its target T3, Retinoic acid receptor RXR-gamma (Homo sapiens). Put plainly: Agonist activity at Gal4-LBD fused RXRgamma (unknown origin) expressed in HEK293T cells assessed as fold activation at 20 uM after 14 to 16 hrs by dual-Glo luciferase assay relative to untreated control. The procedure, abridged:
as §1

The target in assay [7] is T1, Retinoic acid receptor RXR-alpha (Homo sapiens). Put plainly: Agonist activity at Gal4-LBD fused RXRalpha (unknown origin) expressed in HEK293T cells assessed as fold activation at 10 uM after 14 to 16 hrs by dual-Glo luciferase assay relative to untreated control. The procedure, abridged:
(§2)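 Gal4-hybrid RXRα/β/γ reporter gene assays in HEK293T cells. Fold activation is the maximal fold activation versus 0.1% DMSO. EC50 and fold activation are mean ± SD, n ≥ 3.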

In assay [8] the target is T2, Retinoic acid receptor RXR-beta (Homo sapiens). Put plainly: Agonist activity at Gal4-LBD fused RXRbeta (unknown origin) expressed in HEK293T cells assessed as fold activation at 10 uM after 14 to 16 hrs by dual-Glo luciferase assay relative to untreated control. The procedure, abridged: as §2
The target of assay [9] is T3, Retinoic acid receptor RXR-gamma (Homo sapiens). Put plainly: Agonist activity at Gal4-LBD fused RXRgamma (unknown origin) expressed in HEK293T cells assessed as fold activation at 10 uM after 14 to 16 hrs by dual-Glo luciferase assay relative to untreated control. The essentials:
as §2

Assay [10] concerns the target T1, Retinoic acid receptor RXR-alpha (Homo sapiens). Put plainly: Agonist activity at Gal4-LBD fused RXRalpha (unknown origin) expressed in HEK293T cells assessed as fold activation at 30 uM after 14 to 16 hrs by dual-Glo luciferase assay relative to untreated control. The procedure, abridged: as §2
In assay [11] the target is T2, Retinoic acid receptor RXR-beta (Homo sapiens). Put plainly: Agonist activity at Gal4-LBD fused RXRbeta (unknown origin) expressed in HEK293T cells assessed as fold activation at 30 uM after 14 to 16 hrs by dual-Glo luciferase assay relative to untreated control. The essentials: as §2
Assay [12] addresses T3, Retinoic acid receptor RXR-gamma (Homo sapiens). Put plainly: Agonist activity at Gal4-LBD fused RXRgamma (unknown origin) expressed in HEK293T cells assessed as fold activation at 30 uM after 14 to 16 hrs by dual-Glo luciferase assay relative to untreated control. The essentials: as §2

For `Cc1cc(-c2cc(C(F)(F)F)cc(C(F)(F)F)c2)ccc1CC(=O)O`, the fold change (FC) was found to be 24.7 in assay [1], 62.1 in [2] and 14.1 in assay [3].
`Cc1cc(-c2ccc(C(=O)O)cc2)cc(C(C)(C)C)c1`: the fold change (FC) in assay [4] amounted to 10; in assay [5], 7; in [6], 2; in [1] it was 10; in [2], 8.4.
On to `O=C(O)Cc1ccc(-c2cc(C(F)(F)F)cc(C(F)(F)F)c2)cc1`, for which the fold change (FC) amounted to 32 in [7]; 92 in assay [8]; 19 in assay [9]; 37 in [1]; 93 in assay [2]; 28 in assay [3].
Consider `CC(C)(C)c1cc(-c2ccc(CC(=O)O)cc2)cc(C(C)(C)C)c1`, for which the fold change (FC) in assay [1] was 41; in assay [2], 126; in assay [3], 26.
As to `Cc1cc(-c2cc(C(F)(F)F)cc(C(F)(F)F)c2)ccc1C(=O)O`, the fold change (FC) in assay [4] came to 38; in assay [5], 39; in assay [6], 2; in assay [1] it was 43; in assay [2] it was 42.
`O=C(O)c1cccc(-c2cc(Cl)cc(Cl)c2)c1`: the fold change (FC) in assay [10] turned out to be 24; in assay [11] it was 34; in assay [12], 3; in assay [1] it was 26; in [2], 38.

(Values after ChEMBL document CHEMBL4304816, “A Novel Biphenyl-based Chemotype of Retinoid X Receptor Ligands Enables Subtype and Heterodimer Preferences” (ACS Med Chem Lett, 2019).)
